Values joined by “and” are separate entries in the source; they are usually repeats but may differ in a detail not shown here. Equal values may be shown once. Read-outs that look alike come from different tables or passages of the source.
T1: δ subunit of the E. coli clamp loader (E. coli, UniProt P28630 1-343)
T1 sequence (looked up): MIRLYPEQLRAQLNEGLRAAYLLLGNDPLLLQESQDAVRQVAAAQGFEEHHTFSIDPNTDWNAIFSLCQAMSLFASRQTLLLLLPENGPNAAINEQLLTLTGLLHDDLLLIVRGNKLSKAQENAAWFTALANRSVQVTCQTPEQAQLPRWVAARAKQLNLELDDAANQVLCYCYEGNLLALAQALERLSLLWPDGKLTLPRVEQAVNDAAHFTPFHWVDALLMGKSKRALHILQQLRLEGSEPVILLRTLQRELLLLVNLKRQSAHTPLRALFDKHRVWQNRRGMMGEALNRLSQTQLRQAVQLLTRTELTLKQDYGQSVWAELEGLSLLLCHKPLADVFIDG

T2: γ subunit (DnaX) of the E. coli clamp loader (E. coli, UniProt P06710-2 1-431)
T2 sequence (looked up): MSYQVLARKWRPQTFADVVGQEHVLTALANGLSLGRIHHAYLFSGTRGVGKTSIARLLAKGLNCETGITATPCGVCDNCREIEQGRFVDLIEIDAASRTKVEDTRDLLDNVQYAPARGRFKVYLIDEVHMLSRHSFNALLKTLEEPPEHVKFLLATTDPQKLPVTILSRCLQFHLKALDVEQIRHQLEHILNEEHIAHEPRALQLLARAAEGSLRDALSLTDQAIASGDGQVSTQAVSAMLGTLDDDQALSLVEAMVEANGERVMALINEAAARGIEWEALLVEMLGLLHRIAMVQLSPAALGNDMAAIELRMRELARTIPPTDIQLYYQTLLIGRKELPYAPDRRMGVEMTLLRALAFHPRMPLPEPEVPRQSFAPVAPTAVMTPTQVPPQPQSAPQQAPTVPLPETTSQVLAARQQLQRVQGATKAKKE

B1: τ subunit (DnaX) of the E. coli clamp loader (natural protein, UniProt P06710 1-643, looked up)
chain: MSYQVLARKWRPQTFADVVGQEHVLTALANGLSLGRIHHAYLFSGTRGVGKTSIARLLAKGLNCETGITATPCGVCDNCREIEQGRFVDLIEIDAASRTKVEDTRDLLDNVQYAPARGRFKVYLIDEVHMLSRHSFNALLKTLEEPPEHVKFLLATTDPQKLPVTILSRCLQFHLKALDVEQIRHQLEHILNEEHIAHEPRALQLLARAAEGSLRDALSLTDQAIASGDGQVSTQAVSAMLGTLDDDQALSLVEAMVEANGERVMALINEAAARGIEWEALLVEMLGLLHRIAMVQLSPAALGNDMAAIELRMRELARTIPPTDIQLYYQTLLIGRKELPYAPDRRMGVEMTLLRALAFHPRMPLPEPEVPRQSFAPVAPTAVMTPTQVPPQPQSAPQQAPTVPLPETTSQVLAARQQLQRVQGATKAKKSEPAAATRARPVNNAALERLASVTDRVQARPVPSALEKAPAKKEAYRWKATTPVMQQKEVVATPKALKKALEHEKTPELAAKLAAEAIERDPWAAQVSQLSLPKLVEQVALNAWKEESDNAVCLHLRSSQRHLNNRGAQQKLAEALSMLKGSTVELTIVEDDNPAVRTPLEWRQAIYEEKLAQARESIIADNNIQTLRRFFDAELDEESIRPI
B2: δ′ subunit of the E. coli clamp loader (natural protein, UniProt P28631 1-334, looked up)
chain: MRWYPWLRPDFEKLVASYQAGRGHHALLIQALPGMGDDALIYALSRYLLCQQPQGHKSCGHCRGCQLMQAGTHPDYYTLAPEKGKNTLGVDAVREVTEKLNEHARLGGAKVVWVTDAALLTDAAANALLKTLEEPPAETWFFLATREPERLLATLRSRCRLHYLAPPPEQYAVTWLSREVTMSQDALLAALRLSAGSPGAALALFQGDNWQARETLCQALAYSVPSGDWYSLLAALNHEQAPARLHWLATLLMDALKRHHGAAQVTNVDVPGLVAELANHLSPSRLQAILGDVCHIREQLMSVTGINRELLITDLLLRIEHYLQPGVVLPVPHL
B3: ψχ heterodimer of the E. coli clamp loader (complex)
chain 1: MTSRRDWQLQQLGITQWSLRRPGALQGEIAIAIPAHVRLVMVANDLPALTDPLVSDVLRALTVSPDQVLQLTPEKIAMLPQGSHCNSWRLGTDEPLSLEGAQVASPALTDLRANPTARAALWQQICTYEHDFFPRND
chain 2: MKNATFYLLDNDTTVDGLSAVEQLVCEIAAERWRSGKRVLIACEDEKQAYRLDEALWARPAESFVPHNLAGEGPRGGAPVEIAWPQKRSSSRRDILISLRTSFADFATAFTEVVDFVPYEDSLKQLARERYKAYRVAGFNLNTATWK

Legend:
Assay in all cases: native MS
native MS [1] = target: the molecule itself
native MS [2] = target: the molecule itself; remark: listed apart in the source
[3] = target: T1, δ subunit of the E. coli clamp loader
[4] = target: T2, γ subunit (DnaX) of the E. coli clamp …
[5] = target: B1

B1
stoichiometry N (native MS [1]): 3 | stoichiometry N (native MS [2]): 4 and 2

B2
binding result [3]: binds

B3
binding result [4]: binds | binding result [5]: binds

From article PMC4869865 (Structure (London, England : 1993), 2010)
